Measurements published in paper PMC6694196, “Intrinsic tryptophan fluorescence spectroscopy reliably determines galectin-ligand interactions” (Scientific Reports, 2019).

Amino acid sequences for entries named in this document (tags omitted).
UniProt P17931, whole entry: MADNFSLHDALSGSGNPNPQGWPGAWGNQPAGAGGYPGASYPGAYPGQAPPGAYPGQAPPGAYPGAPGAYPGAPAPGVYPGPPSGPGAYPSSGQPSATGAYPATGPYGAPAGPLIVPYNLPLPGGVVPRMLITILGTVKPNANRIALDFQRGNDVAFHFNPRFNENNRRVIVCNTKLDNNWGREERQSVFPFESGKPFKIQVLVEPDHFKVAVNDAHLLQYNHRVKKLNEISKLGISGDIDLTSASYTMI

Experiments:
galectin-3 [1] = target: T1, galectin-3 (Homo sapiens, UniProt P17931); test: Tryptophan fluorescence spectroscopy (TFS) of galectin-3-ligand interaction; settings: galectin-3 10 µM, PBS, 25 °C, One site-Specific binding model, mean ± SEM, n=3
T1 construct: full-length human galectin-3 (residues 1–250, UniProt code: P17931); His-tag (N, cleaved yes); made in house; host or cells: E. coli BL21(DE3)
Description: All tryptophan fluorescence spectroscopy experiments were performed using CARY Eclipse Fluorescence Spectrophotometer (Varian Inc. Santa Clara, California, USA) and a 3 ml quartz cuvette. […] The temperature was maintained constant at 25 °C by an external thermostatic water circulator. […] Control buffer titrations to galectin solutions were performed in parallel for background determination in each experiment. Data from three independent experiments were analysed using nonlinear regression with ‘One Site- Specific Binding’ model (Y = Bmax * X/(KD + X) where X is the ligand concentration, Y is the fluorescence intensity, Bmax is the maximum specific binding and KD is the equilibrium binding constant) in GraphPad Prism 7.04.

galectin-3 [2] = target: T1, galectin-3; test: Isothermal titration calorimetry (ITC) of galectin-3-ligand interaction; format: binding; settings: galectin-3 100 µM, PBS, 25 °C, One set of sites model, mean ± SEM, n=3
Description: ITC experiments were performed at 25 °C using a MicroCal iTC200 microcalorimeter (Malvern Analytical Ltd, Malvern, UK) with 200 µl cell capacity and 40 µl injection syringe volume. […] Ligand-to-buffer and buffer-to-galectin titrations were performed as controls. Ligands were titrated in 19 injections of 2 µl aliquots with 120 s spacing between injections to allow baseline recovery. The ITC titration data were analysed using MicroCal Data Analysis for iTC200 which is an Origin 7.0-based software programme.

galectin-2 [3] = target: T2, galectin-2 (Homo sapiens, UniProt P05162); test: TFS of galectin-2-ligand interaction; format: binding; settings: galectin-2 20 µM, PBS, 25 °C, mean ± SEM, n=3
T2 construct: full length human galectin-2 (residues 1–132, UniProt code: P05162); 6xHis-SUMO (N, cleaved yes); made in house; host or cells: E. coli BL21(DE3)
T2 sequence (P05162 1-132): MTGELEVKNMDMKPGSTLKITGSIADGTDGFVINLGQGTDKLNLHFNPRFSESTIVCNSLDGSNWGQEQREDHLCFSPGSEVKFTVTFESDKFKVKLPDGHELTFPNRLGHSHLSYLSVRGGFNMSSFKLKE
Description: (§1) All tryptophan fluorescence spectroscopy experiments were performed using CARY Eclipse Fluorescence Spectrophotometer (Varian Inc. Santa Clara, California, USA) and a 3 ml quartz cuvette. […] The temperature was maintained constant at 25 °C by an external thermostatic water circulator. To measure galectin-ligand interactions, recombinant galectin-2 at 20 µM, galectin-3 at 10 µM and galectin-4, -4N and -4C at 5 µM were allowed to equilibrate in PBS for 10–30 minutes under constant stirring before being titrated with testing carbohydrate ligand solutions. Galectin-2 was tested with increasing concentrations of LacNAc from 0 to 3.5 mM, lactose from 0 to 4.8 mM and galactose from 0 to 47.0 mM. Galectin-3 was analysed with ligands ranging from 0 to 700 µM for LacNAc, 0 to 1.25 mM for lactose and 0 to 35.5 mM for galactose whereas the inhibitor F3 was tested at concentrations ranging from 0 to 2.64 mM. […] Data from three independent experiments were analysed using nonlinear regression with ‘One Site- Specific Binding’ model (Y = Bmax * X/(KD + X) where X is the ligand concentration, Y is the fluorescence intensity, Bmax is the maximum specific binding and KD is the equilibrium binding constant) in GraphPad Prism 7.04.

galectin-2 [4] = target: T2, galectin-2; test: ITC of galectin-2-ligand interaction; format: binding; settings: galectin-2 100 µM, PBS, 25 °C, mean ± SEM, n=3
Description: ITC experiments were performed at 25 °C using a MicroCal iTC200 microcalorimeter (Malvern Analytical Ltd, Malvern, UK) with 200 µl cell capacity and 40 µl injection syringe volume. All galectins were used at 100 µM in PBS and the binding ligands were prepared in identical buffers. […] F3 was titrated into galectin-3 at concentration of 20 mM. Ligand-to-buffer and buffer-to-galectin titrations were performed as controls. Ligands were titrated in 19 injections of 2 µl aliquots with 120 s spacing between injections to allow baseline recovery. The ITC titration data were analysed using MicroCal Data Analysis for iTC200 which is an Origin 7.0-based software programme. A curve fit using the ‘One set of sites’ interaction model was used to determine the association constant (KA), stoichiometry of binding (N) and enthalpy change (∆H) for all the interactions of simple sugars with the galectins except F3, where a logistic fit was used due to the nature of F3 as a mixture of heterogeneous polysaccharides.

galectin-4 [5] = target: T3, galectin-4 (Homo sapiens, UniProt P56470); test: TFS of galectin-4-ligand interaction; format: binding; settings: full-length galectin-4 5 µM, PBS, 25 °C
T3 construct: full-length human galectin-4 (residues 1–323, UniProt code: P56470); 6xHis-SUMO (N, cleaved yes); made in house; host or cells: E. coli BL21(DE3)
T3 sequence (P56470 1-323): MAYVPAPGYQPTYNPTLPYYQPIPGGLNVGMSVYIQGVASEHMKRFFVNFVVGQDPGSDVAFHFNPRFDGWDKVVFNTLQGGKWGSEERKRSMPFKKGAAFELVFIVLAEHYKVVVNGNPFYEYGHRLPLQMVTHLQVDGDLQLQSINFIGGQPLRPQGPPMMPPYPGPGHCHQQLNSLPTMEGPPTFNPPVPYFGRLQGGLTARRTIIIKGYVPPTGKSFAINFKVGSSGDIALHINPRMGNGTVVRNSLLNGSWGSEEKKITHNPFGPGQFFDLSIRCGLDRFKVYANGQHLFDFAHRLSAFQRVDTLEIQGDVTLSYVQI
Description: as §1

galectin-4 [6] = target: T3, galectin-4; test: ITC of galectin-4-ligand interaction; format: binding; settings: full-length galectin-4 100 µM, PBS, 25 °C
Description: (§2) ITC experiments were performed at 25 °C using a MicroCal iTC200 microcalorimeter (Malvern Analytical Ltd, Malvern, UK) with 200 µl cell capacity and 40 µl injection syringe volume. All galectins were used at 100 µM in PBS and the binding ligands were prepared in identical buffers. LacNAc at 2 mM (for galectin-3), 20 mM (for galectin-2) or 100 mM (for full-length and truncated galectin-4); lactose at 30 mM (for galectin-2, -4 and truncated galectin-4) or 4 mM (for galectin-3); and galactose at 20 mM (for galectin-3) or 200 mM (for galectin-2, -4 and truncated galectin-4) were used in the binding titrations. F3 was titrated into galectin-3 at concentration of 20 mM. Ligand-to-buffer and buffer-to-galectin titrations were performed as controls. Ligands were titrated in 19 injections of 2 µl aliquots with 120 s spacing between injections to allow baseline recovery. The ITC titration data were analysed using MicroCal Data Analysis for iTC200 which is an Origin 7.0-based software programme. A curve fit using the ‘One set of sites’ interaction model was used to determine the association constant (KA), stoichiometry of binding (N) and enthalpy change (∆H) for all the interactions of simple sugars with the galectins except F3, where a logistic fit was used due to the nature of F3 as a mixture of heterogeneous polysaccharides.

[7] = target: T4, galectin-4N (residues 1–152) (Homo sapiens, UniProt P56470); test: TFS of galectin-4N-ligand interaction; format: binding; settings: galectin-4N 5 µM, PBS, 25 °C
T4 construct: N-terminal galectin-4 (galectin-4N, residues 1–152); His-tag (pET47b, HRV3C-cleavable) (cleaved yes); made in house; host or cells: E. coli BL21(DE3)
T4 sequence (P56470 1-152): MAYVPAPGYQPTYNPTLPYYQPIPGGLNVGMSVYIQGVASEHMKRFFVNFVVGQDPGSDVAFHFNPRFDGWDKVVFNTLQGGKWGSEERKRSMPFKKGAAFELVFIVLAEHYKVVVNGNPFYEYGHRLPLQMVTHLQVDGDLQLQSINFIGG
Description: as §1

[8] = target: T4, galectin-4N (residues 1–152); test: ITC of galectin-4N-ligand interaction; format: binding; settings: galectin-4N 100 µM, PBS, 25 °C
Description: as §2

[9] = target: T5, galectin-4C (residues 153–323) (Homo sapiens, UniProt P56470); test: TFS of galectin-4C-ligand interaction; format: binding; settings: galectin-4C 5 µM, PBS, 25 °C
T5 construct: C-terminal galectin-4 (galectin-4C, residues 153–323); His-tag (pET47b, HRV3C-cleavable) (cleaved yes); made in house; host or cells: E. coli BL21(DE3)
T5 sequence (P56470 153-323): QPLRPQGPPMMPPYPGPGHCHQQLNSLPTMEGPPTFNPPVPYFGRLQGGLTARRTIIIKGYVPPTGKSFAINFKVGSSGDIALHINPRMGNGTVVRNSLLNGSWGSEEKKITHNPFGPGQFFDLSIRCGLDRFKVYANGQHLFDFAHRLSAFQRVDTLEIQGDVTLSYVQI
Description: as §1

[10] = target: T5, galectin-4C (residues 153–323); test: ITC of galectin-4C-ligand interaction; format: binding; settings: galectin-4C 100 µM, PBS, 25 °C
Description: as §2

α-lactose was tested, and the Kd (galectin-3 [1]) was 89.7 ± 15.8 µM, the Kd (galectin-3 [2]) was 93.5 ± 9.1 µM and the Kd (galectin-2 [3]) was 1300 ± 200 µM. The Kd (galectin-2 [4]) was 960 ± 180 µM, the Kd (galectin-4 [5]) was 589 µM and ~589 µM and the Kd (galectin-4 [6]) was 738 ± 128 µM. For the same substance, the Kd [7] was 451 µM and ~450 µM, the Kd [8] was 908 ± 52.5 µM and the Kd [9] was 636 µM and ~635 µM. The Kd [10] was 846 ± 71 µM.

“And” between values parts separate entries of the source, which are not always exact repeats. Identical values can stand only once.
